According to US20250082702A1, “ANTICANCER COMPOSITION COMPRISING RECOMBINANT ADENOVIRUS EXPRESSING DEGRADATION FACTOR FOR EXTRACELLULAR MATRIX” (priority 2016, published 2025):

System: NCIN87 gastric tumor tissues
Experiment: Tumor tissue infiltration of Alexa488-labeled trastuzumab (immunofluorescence staining)
Format: in vivo, mice
Method: It was intended to confirm the degree of infiltration and diffusion of the therapeutic material into tumor tissues by performing immunofluorescence staining. After PBS was administered alone, and PBS and trastuzumab (150 μg/mice) or RdB/IL-12/RLX (2.5×10^10 VP) and trastuzumab were co-administered to NCIN87 gastric tumor tissues, the infiltration and distribution aspects of trastuzumab labeled with Alexa488 in tumor tissues were compared.

trastuzumab was tested, and the “infiltration of trastuzumab away from the margin site of the tumor tissue” value (enlarged region, fluorescence vs distance from margin) was “reduced to the level of the negative control”, the “distribution of trastuzumab relative to the blood vessels of the tumor tissue” value (enlarged view of blood vessels) was “increased only around the blood vessels” and the “distribution of trastuzumab in the tumor tissue” value (trastuzumab 150 μg/mice, Alexa488-labeled, RdB/IL-12/RLX 2.5×10^10 VP) was “more intensively distributed around the periphery of the tumor tissue”.
